Experimental data reported in PubChem BioAssay AID646 (Vanderbilt High Throughput Screening Facility, 2007).
The entries are a selection whose mix differs from that of the whole data set. Calls of active or inactive are those of the source. Cut-off read from the data, not from the text of the source: active = luminescence above about 3900; inactive = the rest.

Protein sequences, listed by entry. Tags and fused reporters are not part of them.
UniProt P21728, whole entry: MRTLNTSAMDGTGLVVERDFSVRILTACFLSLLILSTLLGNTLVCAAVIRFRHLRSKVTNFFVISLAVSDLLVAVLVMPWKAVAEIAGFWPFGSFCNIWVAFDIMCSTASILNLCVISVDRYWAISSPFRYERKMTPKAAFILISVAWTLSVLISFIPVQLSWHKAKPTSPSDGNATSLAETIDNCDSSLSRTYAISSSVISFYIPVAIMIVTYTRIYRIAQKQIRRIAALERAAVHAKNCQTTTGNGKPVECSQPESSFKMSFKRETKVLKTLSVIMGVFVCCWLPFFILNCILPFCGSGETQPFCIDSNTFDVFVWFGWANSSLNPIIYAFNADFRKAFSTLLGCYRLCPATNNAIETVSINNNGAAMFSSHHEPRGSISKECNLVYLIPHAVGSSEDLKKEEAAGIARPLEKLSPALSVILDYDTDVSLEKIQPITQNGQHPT

Target: D(1A) dopamine receptor (Homo sapiens) (UniProt P21728)
Assay: intrinsic activation of D1 CRE reporter – cell-based, HEK293 D1, CRE-luciferase, secondary assay 1, mechanism study for D1 allosteric modulator project, confirmation (AID 646)
Conditions: no dopamine, at 10 µM, hits give high values

| Structure (SMILES) | luminescence |
| --- | --- |
| Cc1nc2ccc3ccccc3c2s1.O=[N+]([O-])c1cc([N+](=O)[O-])c(O)c([N+](=O)[O-])c1 | inactive: 1320 |
